# ClpP mod = qHTS Assay for Activators of ClpP | Potency, µM (titrated, usually from 57.5 µM), inactives show top-dose activity change, negative = active | AID 651965, 2013 | actives 1.9% (n = 340,000) | ATP-dependent Clp protease proteolytic subunit (Bacillus subtilis (strain 168)), P80244 | purified B. subtilis ClpP, FRET peptide cleavage, 20 min; active means well fitted falling curve with a large enough effect; inconclusive means small, poorly fitted or top-dose-only effect; inactive means no such curve, though single readings can be large or run the other way; further: potency means the concentration at half of the fitted maximal effect; the source files actives as falling curves though it sought activators and does not explain the sign; nearly all actives have a fitted effect of over 65% in size
#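 FRET quenching reversal measured ClpP activation: 10 microg/mL B. subtilis ClpP at pH 8 with the FRET-FV decapeptide, read at 430 nm after 320 nm excitation. The 20-min minus 0-min signal was scaled between DMSO/no-enzyme wells and ADEP (5.8 microM final).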
# Nrf2 inh = blocks Nrf2 signaling. AID 504444. A549 ARE-Fluc reporter, luciferase luminescence, 18-24 h. Potency, µM (series often up to 46 µM), inactives show at the highest dose activity change, negative = inhibition, hits mostly inhibitors. actives 2.1% (n = 360,000); further: potency means the concentration at half of the fitted maximal effect; on the % scale 0 is the no-effect control and ±100 the full control effect; nearly all actives have a fitted effect of over 60% in size
#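 Concentration-response testing used A549 ARE_Fluc cells at 5000 cells/well. Following an 18-24 h compound incubation, viability was read by fluorescence (Ex 405/Em 525) and luciferase output by luminescence.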
# Nrf2 activator = activates Nrf2 signaling; Potency, µM (titrated, usually from 46.1 µM), without a hit: top-dose activation, usual class: activators; actives 0.31% (n = 410,000); AREc32 ARE-luciferase reporter (MCF7-derived line), luminescence, 24 h; further: potency means the concentration at half of the fitted maximal effect; % of control where 0% means no effect; nearly all actives have a fitted effect of over 65% in size
#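 Luminescent ARE reporter assay in AREc32_Fluc cells: overnight plating at 37 deg C, 24 hr compound incubation, Steady-Glo added, 30 min RT before reading.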
# miR-21 FLuc = miR-21 reporter, rising signal | 340,000 tested, under 10 active | AID 2288 | HeLa miR-21 FLuc reporter, luciferase, 48 h | Potency, µM (titrated, usually from 38.3 µM), for inactives: at the highest dose reporter change, positive = more light; active = well fitted rising curve with a large enough effect; inconclusive = small, poorly fitted or top-dose-only effect; inactive = no such curve, though single readings can be large or run the other way;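 further: % of control where 0% means no effect; miR-21 action dims this reporter so a rising signal means less miR-21 action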
#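 HeLa cells endogenously expressing miR-21, stably carrying CMV-driven firefly luciferase with a downstream miR-21 binding site, 2000 cells/well. Titrations up to approximately 40 uM, 48 hours; luciferase luminescence read.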
# A549 viability = A549 cytotoxicity, counter-screen for Nrf2 inhibitors; A549 ARE-Fluc cells, CellTiter-Fluor viability, 18-24 h; actives 0.16% (n = 390,000); AID 504648; Potency, µM (top dose mostly 46 µM), inactives show top-dose activity change, negative = cytotoxicity, hits mostly inhibitors; further: potency means the concentration at half of the fitted maximal effect; on the % scale 0 is the no-effect control and ±100 the full control effect
#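 A549 ARE_Fluc cells in 5% FBS OPTI-MEM were exposed to compounds in concentration-response for 18-24 h at 37 deg C. Viability was read by CellTiter-Fluor fluorescence (Ex 405/Em 525) after 30 min, before the luciferase read.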
# TCR act = activators of T cell receptors. Potency, µM (titrated, usually from 9.22 µM), without a hit: at the top dose activation of IL-2 secretion, usual class: activators. AID 504894. primary human leukocytes, anti-CD3, IL-2 HTRF, 48 h. 330,000 tested, under 10 active; further: % of control where 0% means no effect
#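 1) Mix primary human leukocytes, a-CD3 beads and compound. 2) Incubate 48 hr. 3) Add HTRF IL-2 reagents (a-IL-2-K, a-IL-2-d2).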
# * hit, by the source's call; u = inconclusive; x = no result given; ! = not confirmed by another sample; [ ] = remark or other dose. Shown are actives, neighbours in structure and some others; about 3.7% of the full set was active somewhere. Unless noted, the call rests on the fitted dose curve; in most records, active means well fitted curve in the direction sought with a large enough effect; inconclusive means small, poorly fitted or top-dose-only effect, or another doubt; inactive means no such curve, though single readings can be large; an effect the other way counts as inactive or inconclusive.
nr	mol	ClpP mod	Nrf2 inh	Nrf2 activator
1	CCc1nnc(NC(=O)C2CCN(C(=O)c3ccco3)CC2)s1	x	-18.6%	0.6%
2	O=C(Nc1nnc(Cc2ccc(Cl)cc2)s1)C1CCN(C(=O)c2ccco2)CC1	1.0%	16.4µM*	x
3	CC1CCN(S(=O)(=O)c2ccc(NC(=O)C3CSC4(C)CCC(=O)N34)cc2)CC1 (configuration not stated)	28.2µM*	-20.3%	0.0%
4	O=C(Nc1ccc(S(=O)(=O)N2CCCCC2)cc1)C1CCN(C(=O)c2ccco2)CC1	x	u	-1.9%
5	CC1CCN(S(=O)(=O)c2ccc(NC(=O)C3CCN(C(=O)c4ccco4)CC3)cc2)CC1	x	13µM*	4.4%
6	O=C(Nc1ccc(Oc2ccccc2)cc1)C1CCN(S(=O)(=O)c2ccccc2)CC1	-2.6%	20.6µM*	-0.9%
7	COc1ccc(NC(=O)c2oc3ccccc3c2NC(=O)c2cc(=O)c3c(C)cc(C)cc3o2)cc1	0.3%	u	0.1%
8	O=C(c1cccc(Cl)c1)N(Cc1ccco1)C1CCS(=O)(=O)C1 (configuration not stated)	-0.2%	-8.6%	0.3%
9	CC(C)C[C@H]1CN(CCCC[C@@H]2CNC(=O)C(=O)N2Cc2ccccc2)C(=O)C(=O)N1Cc1ccccc1	2.5%	x	0.1%
10	COc1ccc(Cl)cc1NC(=O)CCCn1c(=O)c2cccn2c2cccnc21	u	16.4µM*	2.9%

nr	miR-21 FLuc	A549 viability	TCR act
1	-0.4%	-7.8%	1.3%
2	x	-5.6%	x
3	x	0.0%	-3.3%
4	14.6%	2.6%	2.3%
5	9.7%	1.9%	9.4%
6	23.8%	-14.0%	x
7	-10.8%	-4.3%	x
8	0.7%	-8.8%	-6.6%
9	x	x	x
10	-1.7%	-1.3%	x

# Remaining list, next part:
nr	mol	ClpP mod	Nrf2 inh	Nrf2 activator
11	CNC(=O)c1cccc(NC(=O)c2cc(-c3ccccc3)nc3c2cnn3C(C)C)c1	-18.6%	20.6µM*	-0.1%
12	COc1cc(NC(=O)c2cc(-c3ccccc3)nc3c2cnn3C(C)C)cc(OC)c1OC	5.4%	u	-0.6%
13	COc1ccc(NC(=O)c2cccc(N3C(=O)C4C5C=CC(C5)C4C3=O)c2)cc1Cl (configuration not stated)	x	u	-0.6%
14	COc1ccc(C2Nc3ccccc3C(=O)N2Cc2ccc(-c3ccccc3)cc2)cc1COc1ccc(NC(C)=O)cc1 (configuration not stated)	x	2.5%	x
15	COc1ccc(N(CC(=O)NC2CCCC2)C(=O)CCC(=O)Nc2cc(C)on2)cc1OC	-0.9%	-2.3%	0.1%
16	COc1ccc(C2Nc3ccccc3C(=O)N2Cc2cccc(Cl)c2)cc1COc1ccc(NC(C)=O)cc1 (configuration not stated)	x	23.1µM*	x
17	COc1ccc(C2Nc3ccccc3C(=O)N2Cc2ccco2)cc1COc1ccc(NC(C)=O)cc1 (configuration not stated)	31.6µM*!	u	2.5%
18	COc1ccc(CN(Cc2ccccc2)C(=O)c2ccccc2)cc1COc1ccc(NC(C)=O)cc1	x	23.1µM*	x
19	COc1ccc(C2Nc3ccccc3C(=O)N2Cc2ccco2)cc1COc1ccccc1F (configuration not stated)	14.1µM*	u	8.1%
20	COc1ccc(C(=O)C[n+]2cccc3cccc(O)c32)cc1	-1.4%	x	x

nr	miR-21 FLuc	A549 viability	TCR act
11	x	-19.8%	3.7%
12	x	u	1.3%
13	0.3%	-5.9%	5.1%
14	x	12.1%	x
15	8.3%	3.5%	-5.2%
16	x	-15.7%	x
17	0.2%	2.1%	1.8%
18	x	-18.1%	x
19	10.2%	-2.2%	-5.7%
20	x	x	x

# More results.
nr	mol	ClpP mod	Nrf2 inh	Nrf2 activator
21	COc1ccc(CCNC(=O)C2CCCN(c3nc4c(C)cc(C)cc4s3)C2)cc1OC (configuration not stated)	3.7%	u	3.0%
22	Cc1cc(=O)[nH]c(SCc2nc3ncccn3c2Br)n1	28.2µM*	16.6%	24.1%
23	O=[N+]([O-])c1ccc2sc(SCc3nc4ccccn4c3Br)nc2c1	x	x	x
24	Cc1cc(=O)[nH]c(SCc2cccc3cccnc23)n1	x	u	4.8%
25	Brc1c(CSc2nc3ccccc3s2)nc2ncccn12	28.2µM*	u	8.7%
26	CCCC(=O)N1c2nc(C(C)C)nn2C2(CCCCC2)[C@@H]2CCCC[C@@H]21	-2.5%	-9.5%	0.3%
27	Cc1cc(C)nc(NC(=NCCc2c[nH]c3ccc(Cl)cc23)NC(=O)c2ccccc2C)n1	0.6%	-25.0%	-0.1%
28	Cc1cc(C)nc(NC(=NCCc2c[nH]c3ccccc23)NC(=O)C(C)(C)C)n1	x	20.6µM*	-0.3%
29	CC(=O)c1cccc(NS(=O)(=O)c2cc3c(cc2C)N(C(C)=O)CCO3)c1	-1.0%	18.4µM*	-0.9%
30	Cc1cc2c(cc1S(=O)(=O)Nc1ccc(C(C)C)cc1)OCCN2C	-7.3%	13µM*	6.9%

nr	miR-21 FLuc	A549 viability	TCR act
21	-12.4%	0.3%	x
22	-5.0%	-9.4%	0.6%
23	-5.5%	x	0.0%[46.1 µM]
24	-21.5%	-4.4%	-3.2%
25	-84.0%	16.5%	-2.8%[46.1 µM]
26	0.0%	0.1%	x
27	-4.8%	-7.5%	x
28	-0.3%	u	-1.5%
29	u	u	2.2%
30	-4.2%	-0.5%	x

# Next section.
nr	mol	ClpP mod	Nrf2 inh	Nrf2 activator
31	Cn1c(=O)c2c(SCC(=O)NCc3ccco3)nc(-c3ccccc3F)nc2n(C)c1=O	-0.4%	x	20.0%
32	CC(C)(C)OC(=O)NCc1nnc(-c2nc3ccccc3[nH]2)o1	x	13.7%	x
33	Cc1ccc(S(=O)(=O)N2CCN(c3nc(-c4cccs4)nc(C)c3C)CC2)cc1	-3.5%	5.6%	x
34	Cc1ccc(S(=O)(=O)N2CCN(c3ccnc(-c4cccs4)n3)CC2)cc1	u	14.6µM*	x
35	Cc1ccc(S(=O)(=O)N2CCN(c3nc(-c4cccs4)nc4ncccc34)CC2)cc1	u	11.6µM*	x
36	O=C(NCCNc1ccc([N+](=O)[O-])cc1C(F)(F)F)c1ccc(F)cc1	-0.9%	20.6µM*	2.4%
37	O=[N+]([O-])c1ccc(NCCNCCOc2nonc2-c2ccccc2)c([N+](=O)[O-])c1	15.8µM*	u	4.0%
38	Cc1oc(-c2ccccc2)nc1Cn1cccc1C1=NC(c2ccccc2)CO1 (configuration not stated)	u	20.6µM*	-0.4%
39	CCc1ccccc1NC(=O)Cn1cccc1C1=NC(c2ccccc2)CO1 (configuration not stated)	-8.8%	-9.6%	2.2%
40	Fc1ccc(Cn2cccc2C2=NC(c3ccccc3)CO2)cc1 (configuration not stated)	20µM*	1.2%	0.5%

nr	miR-21 FLuc	A549 viability	TCR act
31	-0.8%	2.4%	x
32	x	-4.0%	x
33	x	7.0%	x
34	x	-5.0%	x
35	x	-15.5%	x
36	16.3%	u	-0.4%[46.1 µM]
37	2.2%	-5.6%	5.0%
38	11.1%	-9.5%	-3.4%
39	-1.6%	-6.1%	-1.5%[46.1 µM]
40	-36.9%	-2.4%	-7.8%

# Screens from PubChem BioAssay.
